In patent US5268468A, “N-nitrosophenoxybenzenepropanamine and N-1-chloroethyl carbamate intermediates” (Hoechst-Roussel Pharmaceuticals Incorporated, priority 1993, dated 1993):

Test system: serotonin uptake in rat whole brain and hypothalamic synaptosomes
Assay: [3H]-Serotonin Uptake in Rat Whole Brain and Hypothalamic Synaptosomes
Assay type: biochemical, rat (male CR Wistar)
Settings: rat whole brain or hypothalamic synaptosomes; 50 nM [3H]-5-hydroxytryptamine; 37° C., 5 minutes; pH 7.4; log-probit analysis; read-out: Inhibition of Serotonin Uptake (IC50)
From the text: The 2-[3-phenyl-3-(phenoxy)propyl]hydrazines of the present invention are useful for the treatment of personality disorders particularly obsessive compulsive disorders due to their ability to block serotonin uptake in mammals as determined in the assay described below:
[^3 H]-Serotonin Uptake in Rat Whole Brain
and Hypothalamic Synaptosomes
A. Animals: Male CR Wistar rats (100-125 g).
1. Krebs-Henseleit Bicarbonate Buffer, pH 7.4 (KHBB):
Make a 1 liter batch, containing the following salts.
Potassium chloride 0.35 4.7
Calcium chloride 0.14 1.3
Aerate for 60 min. with 95% oxygen/5% carbon dioxide,
2. 0.32 M Sucrose: 21.9 g of sucrose, bring to 200 ml.
3. Serotonin creatinine sulfate 0.1 mM stock solution is
made up in 0.01 N hydrochloric acid. This is used to
dilute the specific activity of radiolabeled
[H^3 ]-5-hydroxytryptamine (serotonin).
4. 5-[1,2-^3 H(N)]-Hydroxytryptamine creatinine sulfate
(Serotonin), specific activity 20-30 Ci/mmol is used.
The final desired concentration of
[H^3 ]-5-hydroxytryptamine in the assay is 50 nM. The
dilution factor is 0.8. Therefore, the KHBB is made up to
contain 62.5 nM [H^3 ]-5-hydroxy-tryptamine.
A) 56.1 μl of 0.1 mM 5-hydroxytryptamine
*B) 0.64 nmole of 5-hydroxytryptamine
5. For most assays, a 1 mM stock solution of the test com-
pound is made up in suitable solvent and serially diluted […]
scintillation vials, and counted in 10 ml of Liquiscint […]

CNCCC(Oc1ccc(C(F)(F)F)cc1)c1ccccc1 (stereo not shown) [N-Methyl-3-[4-(trifluoromethyl)phenoxy]benzenepropanamine hydrochloride]
IC50: 250 nM

Where a name gives a salt, the structure may show the parent alone.
